# In ChEMBL document CHEMBL4304783, “Discovery of a Novel Selective Dual Peroxisome Proliferator-Activated Receptor α/δ Agonist for the Treatment of Primary Biliary Cirrhosis” (ACS Med Chem Lett, 2019):
# Sequences of proteins named here, by UniProt entry; tags and fusion partners are left off. A change or cut given only in a name is not applied to a line headed by its entry.
# UniProt P37231: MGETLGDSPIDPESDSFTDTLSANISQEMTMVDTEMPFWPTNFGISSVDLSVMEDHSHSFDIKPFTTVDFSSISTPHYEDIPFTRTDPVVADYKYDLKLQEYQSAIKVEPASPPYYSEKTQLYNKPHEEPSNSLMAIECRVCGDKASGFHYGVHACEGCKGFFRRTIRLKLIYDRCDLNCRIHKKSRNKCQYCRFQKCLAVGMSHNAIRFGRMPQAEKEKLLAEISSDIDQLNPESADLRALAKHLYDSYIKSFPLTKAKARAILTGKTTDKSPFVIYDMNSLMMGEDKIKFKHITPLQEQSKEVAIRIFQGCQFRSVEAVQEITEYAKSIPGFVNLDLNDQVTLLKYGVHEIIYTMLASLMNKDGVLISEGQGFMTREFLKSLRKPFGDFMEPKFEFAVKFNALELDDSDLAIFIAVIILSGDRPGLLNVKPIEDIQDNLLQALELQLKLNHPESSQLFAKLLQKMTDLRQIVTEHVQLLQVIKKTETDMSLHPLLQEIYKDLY
# UniProt Q03181: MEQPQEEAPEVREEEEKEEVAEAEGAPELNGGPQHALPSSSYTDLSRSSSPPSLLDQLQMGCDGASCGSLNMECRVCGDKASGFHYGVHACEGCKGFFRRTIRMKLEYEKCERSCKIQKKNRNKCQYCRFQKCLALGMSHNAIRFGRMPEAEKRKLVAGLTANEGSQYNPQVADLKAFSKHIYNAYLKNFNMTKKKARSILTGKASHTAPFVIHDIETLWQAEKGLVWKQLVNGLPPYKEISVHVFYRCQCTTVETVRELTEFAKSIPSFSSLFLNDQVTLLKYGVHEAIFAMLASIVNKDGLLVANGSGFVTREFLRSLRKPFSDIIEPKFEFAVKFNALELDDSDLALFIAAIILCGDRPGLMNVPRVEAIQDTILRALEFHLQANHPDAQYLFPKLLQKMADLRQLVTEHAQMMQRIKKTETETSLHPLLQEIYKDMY
# Columns and labels:
# [1] = target: T1, Peroxisome proliferator-activated receptor alpha (Homo sapiens) (UniProt Q07869); test: Potency index, ratio of EC50 of GFT505 to ratio of EC50 of compound for agonist activity at PPARalpha (unknown origin) incubated for 3 to 16 hrs by pathhunter nuclear hormone receptor assay
# T1 sequence (whole entry): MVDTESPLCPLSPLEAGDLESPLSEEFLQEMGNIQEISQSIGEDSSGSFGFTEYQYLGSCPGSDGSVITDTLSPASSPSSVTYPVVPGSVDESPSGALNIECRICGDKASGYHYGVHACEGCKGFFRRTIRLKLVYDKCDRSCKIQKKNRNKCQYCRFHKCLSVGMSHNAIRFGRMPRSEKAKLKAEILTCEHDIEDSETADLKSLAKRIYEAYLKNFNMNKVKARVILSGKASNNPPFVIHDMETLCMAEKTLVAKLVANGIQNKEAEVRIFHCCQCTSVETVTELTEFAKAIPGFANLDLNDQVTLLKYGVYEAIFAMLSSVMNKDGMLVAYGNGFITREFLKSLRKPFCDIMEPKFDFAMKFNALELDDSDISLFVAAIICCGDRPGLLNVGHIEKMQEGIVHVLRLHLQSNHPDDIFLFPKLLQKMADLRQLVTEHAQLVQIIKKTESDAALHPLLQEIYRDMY
# Homo sapiens = species on record: Homo sapiens; test: Selectivity index, ratio of EC50 of PPARgamma (unknown origin) to EC50 of PPARalpha (unknown origin)
# [2] = target: PPAR delta/gamma (Homo sapiens) (UniProt P37231+Q03181); test: Selectivity index, ratio of EC50 of PPARgamma (unknown origin) to EC50 of PPARdelta (unknown origin); type: protein assay
smiles,measurement,setting,value
Cc1cc(Cc2cc(-c3ccc(Br)cc3)on2)cc(C)c1OC(C)(C)C(=O)O,Ratio EC50,[1],8 to 28
same,Ratio EC50,Homo sapiens,367
same,Ratio EC50,[2],588
